Assay results taken from patent US20260216158A1, “OCULAR IMPLANT CONTAINING A TYROSINE KINASE INHIBITOR” (OCULAR THERAPEUTIX, INC., priority 2023, published 2026).

Conditions: 4 h

- Thermodynamic solubility in PBS, pH 7.4 at 37° C., 4 hours: 0.4 μg/mL
Substance: Fumaric Acid
